Reference: patent publication EP1536230A1, “Flow cytometric, particle-based binding assay” (Deutsches Rheuma-Forschungszentrum Berlin, priority 2003, dated 2005)

Key:
FITC-Ovalbumin = biological target: T1, FITC-Ovalbumin (Gallus gallus, UniProt P01012); assay: Flow cytometric, particle-based binding assay with control protein FITC-Ovalbumin (specificity); conditions: FITC-Ovalbumin (25 nM), biot-VIVIT-Peptid (300 nM)
T1 construct: purchased Sigma
T1 sequence (P01012 1-386): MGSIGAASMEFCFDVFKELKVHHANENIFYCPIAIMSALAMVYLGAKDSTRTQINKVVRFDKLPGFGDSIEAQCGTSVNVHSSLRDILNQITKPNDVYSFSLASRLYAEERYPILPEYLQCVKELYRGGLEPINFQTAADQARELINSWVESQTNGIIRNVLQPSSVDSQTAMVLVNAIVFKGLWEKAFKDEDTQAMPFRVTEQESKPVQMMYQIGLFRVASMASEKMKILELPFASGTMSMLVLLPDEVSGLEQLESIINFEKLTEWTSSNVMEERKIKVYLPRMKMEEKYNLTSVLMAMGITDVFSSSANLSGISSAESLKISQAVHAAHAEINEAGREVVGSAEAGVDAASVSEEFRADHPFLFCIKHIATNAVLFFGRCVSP

[1] = biological target: T2, Rekombinantes menschliches CaN (Homo sapiens, UniProt Q08209); assay: Flow cytometric, particle-based binding assay: FITC-CaN bound via biotinylated peptide to streptavidin beads; conditions: FITC-CaN (25 nM), biot-VIVIT-Peptid (300 nM), Streptavidin-Beads (50000), versus control without peptide
T2 construct: made in house; host or cells: E. coli
Description: Der Assaypuffer war wie folgt zusammengesetzt: 25mM Tris/HCl, 3mM MgCl2, 1mM EGTA, 0,5mM DTT oder TCEP, pH 7,4. Wenn nicht anders angegeben, wurde der Assaypuffer noch mit 0,05% BSA (PAA laboratories) versetzt.
Rekombinantes menschliches CaN wurde in Boratpuffer aufgenommen und mit FITC (Sigma) in einem molaren Verhältnis von 1:12 für 1h auf Eis und vor Licht geschützt inkubiert. Das ungebundenen FITC wurde dann über eine PD10 Säule (Amersham-Pharmacia) abgetrennt.
(§1) Zu rekombinantem menschlichen FITC-CaN (25 nM), das in Assaypuffer mit 0,05% BSA mit biotinyliertem VIVIT-Peptid (300 nM) bzw. NFAT-B Peptid (4 µM) für 10 min lichtgeschützt auf Eis inkubierte, wurden 50000 beads in 10 µl Asaypuffer pipettiert. Nach weiteren 10 min Inkubation wurde das Reaktionsgemisch (110 µl) im Durchflusszytometer "FacsCalibur" (BD Biosciences) gemessen. Bei der Testung von Substanzen auf ihre Fähigkeit, die CaN-VIVIT Bindung zu blockieren, wurde ein zusätzlicher Inkubationsschritt dem o.g. Assay vorgeschaltet. Dafür wurde 1 µl Inhibitor (in DMSO) zu FITC-CaN in Assaypuffer (94 µl) pipettiert und anschließend für 30 min lichtgeschützt auf Eis belassen. Die Auswertung der Meßdaten erfolgte mit der Software CellQuest (BD Biosciences).

CaN-VIVIT Bindung = biological target: T3, CaN-VIVIT Bindung (Homo sapiens, UniProt Q08209); assay: Flow cytometric binding assay: competition / blocking of the CaN-VIVIT binding; set-up: species or system menschliches
T3 construct: made in house; host or cells: E. coli
Description: as §1
Durch spezifische Konkurrenz (Kompetierung) von zugegebenen Verbindungen mit Komponenten eines Assays lassen sich ebenfalls Aussagen über die Spezifität von Bindungen treffen.
Zur Testung von verschiedenen niedermolekularen immunsuppressiven Substanzen auf ihre Fähigkeit, die CaN-VIVIT Bindung zu blockieren, wurde ein zusätzlicher Inkubationsschritt von FITC-CaN mit der entsprechenden Verbindung vorgeschaltet. Als negative Kontrolle wurde der immunsuppressive Komplex CsA/Cyclophilin18 (Cyp) getestet, der bekanntermaßen die Calcineurinaktivität nicht aber die CaN-NFAT Bindung hemmt. […]

Fluoreszenzintensität (Bindung des Kontrollproteins FITC-Ovalbumin) (FITC-Ovalbumin; listed as VIVIT-Peptid)	Fluoreszenzintensität (Bindung des Kontrollproteins FITC-Ovalbumin) (FITC-Ovalbumin; listed as biot-VIVIT-Peptid)	mittlere Fluoreszenzintensität (Bindung von FITC-CaN über biotinyliertes Peptid an Beads) ([1]; listed as VIVIT-Peptid)	mittlere Fluoreszenzintensität (Bindung von FITC-CaN über biotinyliertes Peptid an Beads) ([1]; listed as biotinyliertem VIVIT-Peptid)	beadassoziierte spezifische Bindung von FITC-CaN über biot-VIVIT (Kompetierung) (CaN-VIVIT Bindung; 50 facher Überschuß of nichtbiotinyliertem VIVIT)	Substance	mittlere Fluoreszenzintensität (Bindung von FITC-CaN über biotinyliertes Peptid an Beads) ([1]; listed as biot-VIVIT-Peptid)	beadassoziiertes FITC-CaN (Kompetierung) (CaN-VIVIT Bindung; nichtbiotinyliertes VIVIT (1500 nM) displaces biotinylated VIVIT)
keine erhöhte Fluoreszenzintensität	aber nicht	erhöhte Fluoreszenzintensität	erhöhte Fluoreszenzintensität	–	biotinyl-GMAGPHPVIVITGPHEE (N-terminal biotin) [biot-VIVIT]	höhere mittlere Fluoreszenzintensität; also recorded: bindet spezifisch; also recorded: erhöhte Fluoreszenzintensität	–
–	–	–	–	nicht mehr nachweisbar	GMAGPHPVIVITGPHEE	–	kein beadassoziiertes FITC-CaN mehr nachweisbar

“Also recorded” adds a separate entry of the source.
